Measurements from patent publication US11674182B2, “Biomarker for HER2-positive cancer and anti-HER2 therapy and applications thereof” (INDUSTRY-UNIVERSITY COOPERATION FOUNDATION HANYANG …, priority 2017, dated 2023).

Columns and labels:
HCC-1954 cells = assay: Cell viability test in HCC-1954 cells; format: cell-based, human; conditions: HCC-1954 cells with trastuzumab resistance due to I3KH1047R mutation, MEL-18 overexpression
Experimental: (§1) An in vitro toxicity test analysis kit (Sulforhodamine B based, TOX6) was purchased from Sigma-Aldrich (St. Louis, Mo., USA), and used according to the manufacturer's protocols. […] After five days, the cells were fixed by layering a TCA solution in the medium, and incubated at 4° C. for 1 hour. The fixed cells were washed with water several times, and stained with a 0.4% sulforhodamine B solution for 30 minutes. Subsequently, the stained cells were washed with a 1% acetic acid solution until remaining salts were no longer observed, and the incorporated dye was dissolved in a 10 mM Tris solution while gently stirring. The prepared plate was detected using a microplate reader at 490 nm.

SKBR3 cells = assay: Cell viability test (SRB) in SKBR3 cells; format: cell-based, human; conditions: MEL-18-overexpressing SKBR3 cells vs trastuzumab-treated control cells; 10 μg/ml
Experimental: as §1

BT474 cells [1] = assay: Cell viability test (SRB) and colony formation assay in BT474 cells; format: cell-based, human; conditions: MEL-18-knockdown (shMEL) BT474 cells; 10 μg/ml trastuzumab, 5 days
Experimental: as §1
After 2 weeks, the cells were fixed with a 4% formaldehyde solution for 5 minutes, washed with PBS, and stained with 0.02% crystal violet (C0775, Sigma-Aldrich) for 1 to 2 hours at room temperature and then washed again. The prepared plates were dried thoroughly, and the experiment was carried out.

BT474 cells [2] = assay: Orthotopic mouse xenograft model of BT474 cells; format: in vivo, NOD/SCID mice; conditions: trastuzumab 20 mg/kg intraperitoneal twice weekly
Experimental: All animal experiments were approved by the Hanyang University Animal Care and Use Committee (Seoul, Korea). Four-week-old female NOD/SCID mice were purchased from Koatech (Pyeongtaek, Gyeonggi). For orthotopic xenografts, control and MEL-18-knockdown BT474 cells (2×10^6) were resuspended in 150 uL of a 1:1 mixture of PBS/Matrigel, and directly injected into breast fat pads of the mice (left, control; right, MEL-18 shRNA). One day before the cell injection into the mice, estradiol pellets (0.72 mg, 60-day release; Innovative Research of America, Sarasota, Fla., USA) were provided. […] The tumor size was measured twice weekly, and the mice were monitored daily for clinical signs of toxicity during a treatment period.
The tumor size was calculated as follows: Volume (mm^3)=(a×b^2)/2, wherein a is the largest diameter, and b is a vertical diameter.

## trastuzumab
HCC-1954 cells
  sensitivity of cells to trastuzumab: did not make the cells sensitive to trastuzumab
SKBR3 cells
  growth inhibitory effect of trastuzumab: higher growth inhibitory effect
BT474 cells [1]
  response of cells to trastuzumab (cell survival, SRB): induced trastuzumab resistance
BT474 cells [2]; MEL-18-knockdown BT474 xenograft
  tumor growth response: increased promoted tumor growth regardless of trastuzumab treatment
BT474 cells [2]; control (shCon) BT474 xenograft
  tumor growth response: responded to trastuzumab
